How the values were obtained:
CFP-PS1 (human), P49768 = test: FRET or BRET; acceptor photobleaching FRET between CFP and YFP fusions in fixed, transfected HEK293 cells, in the presence of the other γ-secretase components; n=20 cells per group; also after 16 h with 3 μM chemicals (3AA, XYT472B, secretase inhibitors); conditions: remark: other sources report otherwise
YFP-PS1 (human), P49768 = test: as above; conditions: remark: other sources report otherwise

| FRET efficiency (CFP-PS1 (human), P49768) | FRET efficiency (YFP-PS1 (human), P49768) | Binder |
| --- | --- | --- |
| 0.1 | – | BACE1-YFP, P56817 46-501 (natural protein) ETDEEPEEPGRRGSFVEMVDNLRGKSGQGYYVEMTVGSPPQTLNILVDTGSSNFAVGAAPHPFLHRYYQRQLSSTYRDLRKGVYVPYTQGKWEGELGTDLVSIPHGPNVTVRANIAAITESDKFFINGSNWEGILGLAYAEIARPDDSLEPFFDSLVKQTHVPNLFSLQLCGAGFPLNQSEVLASVGGSMIIGGIDHSLYTGSLWYTPIRREWYYEVIIVRVEINGQDLKMDCKEYNYDKSIVDSGTTNLRLPKKVFEAAVKSIKAASSTEKFPDGFWLGEQLVCWQAGTTPWNIFPVISLYLMGEVTNQSFRITILPQQYLRPVEDVATSQDDCYKFAISQSSTGTVMGAVIMEGFYVVFDRARKRIGFAVSACHVHDEFRTAAVEGPFVTLDMEDCGYNIPQTDESTLMTIAYVMAAICALFMLPLCLMVCQWRCLRCLRQQHDDFADDISLLK |
| – | 0.1 | BACE1-CFP, P56817 46-501 (natural protein) ETDEEPEEPGRRGSFVEMVDNLRGKSGQGYYVEMTVGSPPQTLNILVDTGSSNFAVGAAPHPFLHRYYQRQLSSTYRDLRKGVYVPYTQGKWEGELGTDLVSIPHGPNVTVRANIAAITESDKFFINGSNWEGILGLAYAEIARPDDSLEPFFDSLVKQTHVPNLFSLQLCGAGFPLNQSEVLASVGGSMIIGGIDHSLYTGSLWYTPIRREWYYEVIIVRVEINGQDLKMDCKEYNYDKSIVDSGTTNLRLPKKVFEAAVKSIKAASSTEKFPDGFWLGEQLVCWQAGTTPWNIFPVISLYLMGEVTNQSFRITILPQQYLRPVEDVATSQDDCYKFAISQSSTGTVMGAVIMEGFYVVFDRARKRIGFAVSACHVHDEFRTAAVEGPFVTLDMEDCGYNIPQTDESTLMTIAYVMAAICALFMLPLCLMVCQWRCLRCLRQQHDDFADDISLLK |
